# According to PubChem BioAssay AID574 (The Scripps Research Institute Molecular Screening Center, 2007):
# Protein sequences, listed by entry. Tags and fused reporters are not part of them.
# UniProt P28566, whole entry: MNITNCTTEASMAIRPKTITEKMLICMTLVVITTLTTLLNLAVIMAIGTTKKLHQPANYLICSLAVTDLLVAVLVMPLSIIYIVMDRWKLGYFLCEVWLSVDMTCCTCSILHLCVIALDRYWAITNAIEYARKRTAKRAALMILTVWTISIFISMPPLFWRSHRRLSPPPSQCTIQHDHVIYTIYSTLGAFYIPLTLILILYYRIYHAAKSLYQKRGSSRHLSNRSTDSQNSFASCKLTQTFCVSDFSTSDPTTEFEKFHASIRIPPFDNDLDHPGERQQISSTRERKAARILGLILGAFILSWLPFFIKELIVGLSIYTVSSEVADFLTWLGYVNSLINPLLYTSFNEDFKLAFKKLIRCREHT
# Only a part is listed here, and it is no random draw. The source made the active and inactive calls.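 The calls were made as follows: active = activation above a set limit, the screen-wide mean activation plus 3 SD (cut at about 8.5% in these data); inactive = the rest.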
# Target: 5-hydroxytryptamine receptor 1E (Homo sapiens) (UniProt P28566)
# Experiment: activation of human serotonin 5HT1E receptor – cell-based, HTS, primary screen (AID 574);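 also: 100% = positive control agonist at 1 µM giving full maximal response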
# Details: CHO 5-HT1E Ga15 NFAT-bla reporter, FRET; at 6 µM; stronger effect = higher value; 0% DMSO wells, 100% control agonist wells
row,Structure (SMILES),activation
1,N/C(=N\O)c1c(N)no[n+]1[O-],inactive: 0.8%
2,CCOc1ncccc1C(=O)NCC1(N2CCOCC2)CCCCC1,inactive: 0%
3,CCC(CO)(C(=O)OC1CN2CCC1CC2)c1ccccc1 (configuration not stated),inactive: 0.4%
4,Fc1ccccc1NC1CCN(Cc2ccccc2)CC1,inactive: 0.6%
5,COc1ccc(NC2CCN(CCc3ccccc3)CC2)c(OC)c1,inactive: 0.3%
6,O=C(OC1CN2CCC1CC2)C1c2ccccc2Oc2ccccc21 (configuration not stated),inactive: -0.7%
7,N#CC1(Nc2ccccc2)CCN(CCc2ccccc2)CC1,inactive: -0.4%
